These are literature values, as cited in patent US10365286B2, “Chromophoric structures for lanthanide chelates” (RADIOMETER TURKU OY, priority 2014, dated 2019).

For the data set the following is noted: room temperature; cited from earlier work.

Regarding “europium chelate of 4-(2-(7-hexyloxy-9,9′-dihexylfluorenyl)ethynyl)-2,6-bis(diethylcarbamoyl)pyridine.[OTf]3”, the emission entry is listed as “no significant emission”.
